# From PubChem
# The list is not random: actives were taken first. Their share in the collection is about 2.2%.
# A549 viability: counter-screen for Nrf2 inhibitors: cytotoxicity in A549 cells; AID 504648; A549 ARE-Fluc cells, CellTiter-Fluor viability, 18-24 h; hit rate 0.16% among 390,000; Potency, µM (doses to about 46 µM), inactives show at the highest dose activity change, negative = cytotoxicity, actives largely listed as inhibitors; further: potency means the concentration at half of the fitted maximal effect; on the % scale 0 is the no-effect control and ±100 the full control effect
#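 A549 ARE-Fluc cells in 5% FBS OPTI-MEM, 5000 cells/well, rested 2 h then exposed to compounds in concentration-response for 18-24 h at 37 °C. Viability by CellTiter-Fluor fluorescence (Ex 405/Em 525) after 30 min; luciferase luminescence (BugLite, 15 min, RT) read afterwards.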
# Nrf2 inh: blocks Nrf2 signaling; A549 ARE-Fluc reporter, luciferase luminescence, 18-24 h; Potency, µM (highest dose often 46 µM), inactives show at the top dose activity change, negative = inhibition, actives largely listed as inhibitors; hit rate 2.1% among 360,000; AID 504444; further: potency means the concentration at half of the fitted maximal effect; on the % scale 0 is the no-effect control and ±100 the full control effect; nearly all actives have a fitted effect of over 60% in size
#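 Quantitative HTS in A549 cells stably bearing an antioxidant response element-firefly luciferase construct. Inhibition of Nrf2-driven transcription was scored by luminescence after 18-24 h of compound exposure at 37 °C.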
# PI4K2A inh: PI4K2A (human) kinase inhibition | Q9BTU6 | activity change, negative = inhibition, % at 76.9 µM | purified PI4K2A, ADP-Glo luminescence, 1 h; active compounds read low | AID 1346378 | hit rate 0.13% among 420,000; in the data active means activity change below about -50%; inconclusive means mostly about -30% to -49%;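 further: -100% = wells without enzyme as full effect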
#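 Compounds are screened against recombinant PI4K2A using PI as substrate and ATP, the latter dispensed at 300 microM. Reactions run one hour at ambient temperature before ADP-Glo detection; full inhibition defined by wells lacking enzyme.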
# Nrf2 activator: activates Nrf2 signaling; AREc32 ARE-luciferase reporter (MCF7-derived line), luminescence, 24 h; Potency, µM (series often up to 46.1 µM), without a hit: at the top dose activation, most hits filed as activators; hit rate 0.31% among 410,000; AID 624171; further: potency means the concentration at half of the fitted maximal effect; % of control where 0% means no effect; nearly all actives have a fitted effect of over 65% in size
#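 AREc32_Fluc, 1000 cells/well, OPTI-MEM + 5% FBS, o/n 37 deg C 5% CO2; 23 nL cpd by pin tool, 24 hr; Steady-Glo 30 min RT, luminescence.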
# miR-21 reporter: raises the signal of a miR-21 reporter | HeLa miR-21 FLuc reporter, luciferase, 48 h | Potency, µM (highest dose often 38.3 µM), inactives show at the highest dose reporter change, positive = more light | 340,000 tested, under 10 active | AID 2288; active = well fitted rising curve with a large enough effect; inconclusive = small, poorly fitted or top-dose-only effect; inactive = no such curve, though single readings can be large or run the other way;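 note: % of control where 0% means no effect; miR-21 action dims this reporter so a rising signal means less miR-21 action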
#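 HeLa cells stably expressing CMV-driven firefly luciferase with a downstream miR-21 binding sequence, endogenously expressing miR-21, were treated with titrations (up to about 40uM final) for 48 hours at 37 degree Celsius. Luciferase luminescence was read after lysis.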
# GALK inhibitor: blocks human galactokinase activity; hit rate 0.007% among 270,000; Purified GALK, Kinase-Glo residual ATP luminescence; Potency, µM (doses to about 57.5 µM), for the others: top-dose activity change, negative = inhibition, actives largely listed as inhibitors; P51570; further: potency means the concentration at half of the fitted maximal effect; on the % scale 0 is the no-effect control and ±100 the full control effect
#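 Kinase-Glo Plus luminescence measured ATP left after a 1 h room-temperature reaction. The reaction used 5 nM GALK, 100 uM galactose and 35 uM ATP at pH 8.0 (20 mM HEPES, 5 mM MgCl2, 60 mM NaCl, 1 mM DTT, 0.01% BSA).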
# The depositor's hits bear a star; i = inactive; u = inconclusive; x = not tested or not shown. Unless noted, the call rests on the fitted dose curve; in most records, active means well fitted curve in the direction sought with a large enough effect; inconclusive means small, poorly fitted or top-dose-only effect, or another doubt; inactive means no such curve, though single readings can be large; an effect the other way counts as inactive or inconclusive.
(1) Cn1c(O)c(C(=Nc2ccccc2)SCc2ccc(Cl)cc2)c(=O)n(C)c1=O
(2) CCC(=NCc1ccco1)c1c(O)n(C)c(=O)n(C)c1=O
(3) CCC(=NCCc1ccccc1)c1c(O)n(C)c(=O)n(C)c1=O
(4) Cn1ncnc2c(=O)n(C)c(=O)nc1-2
(5) Cc1ccc(-c2nc3c(=O)n(C)c(=O)nc-3n(C)n2)cc1
(6) CC(=O)N1c2ccc(S(=O)(=O)NCC3CCC(C(=O)Nc4cc(C)cc(C)c4)CC3)cc2CC1C (stereo unspecified)
(7) CC(=O)N1c2ccc(S(=O)(=O)N3CCCC(C(=O)Nc4cc(C)cc(C)c4)C3)cc2CC1C (stereo unspecified)
(8) O=[N+]([O-])c1ccc(C(c2ccc([N+](=O)[O-])cc2)c2ccc([N+](=O)[O-])cc2)cc1

compound no.	1	2	3	4	5	6	7	8
A549 viability	u	-10.0%	1.9%	0.461µM*	2.91µM*	-1.7%	14.5%	-23.8%
Nrf2 inh	23.1µM*	u	20.6µM*	0.184µM*	3.26µM*	20.6µM*	u	23.1µM*
PI4K2A inh	-11.2	3.1	-4.3	-52.1*	x	-8.5	5.4	3.8
Nrf2 activator	16.5%	6.6%	0.9%	-4.9%	x	4.1%	3.6%	6.1%
miR-21 reporter	22.4%	9.4%	7.4%	u	x	-5.2%	3.3%	x
GALK inhibitor	-2.7%	-0.4%	-0.1%	1.26µM*	x	x	x	x

(9) O=C(N/N=C/c1cc(Br)c(Br)s1)c1ccncc1
(10) COC1CCC(OC2CC(C3(C)CCC4(CC(O)C(C)C(C(C)/C=C(\C)C(=O)C(C)CC(C)C(=O)O)O4)O3)OC3(OC(C4OC(O)(CO)C(C)CC4C)CC3C)C2C)OC1C (stereo unspecified)
(11) Cc1ccccc1N1C(=O)NC(=O)/C(=C\c2cc(Br)c(N3CCOCC3)o2)C1=O
(12) Cc1ccccc1N1C(=O)NC(=O)/C(=C/c2ccc(N3CCOCC3)o2)C1=O
(13) COc1ccc(-c2cc3nc(C)c(CCC(=O)N4CCN(c5cc(C)ccc5C)CC4)c(C)n3n2)c(OC)c1
(14) O=C1/C(=C/c2ccccc2)C[C@@]2(O)[C@H]3Cc4ccc(O)c5c4[C@@]2(CCN3CC2CC2)C1O5 (stereo partly specified)
(15) CN1CCC(N(Cc2ccccc2)c2ccccc2)CC1
(16) COc1ccccc1C(=O)Nc1ccc2nc(SCC(=O)N(C)c3ccccc3)sc2c1

compound no.	9	10	11	12	13	14	15	16
A549 viability	-10.5%	0.651µM*	23.1µM*	-17.0%	0.4%	u	x	-3.6%
Nrf2 inh	18.4µM*	0.411µM*	16.4µM*	1.1%	u	11.6µM*	x	0.6%
PI4K2A inh	-4.6	6.1	-21.4	-4.7	-7.5	-14.8	0.1	5.3
Nrf2 activator	-0.1%	7.8%	5.6%	3.3%	0.3%	-4.4%	x	-0.5%
miR-21 reporter	27.1%	x	-2.0%	-3.7%	5.9%	x	x	u
GALK inhibitor	0.8%	x	-0.1%	-2.6%	x	x	x	x

(17) COc1ccc(Nc2nc(N)nc(CSc3nc4ccccc4s3)n2)cc1
(18) O=c1[nH]c(=O)n(CCC2=CCCCC2)c(O)c1/C=N/Nc1ccccc1
(19) CC1CC(C)CC(C)C(O)C(C#N)=CC=CCC(C2CCCC2C(=O)O)OC(=O)CC(O)C(C)C1 (stereo unspecified)
(20) CN1C2CCC(C)(C)C1CC(OC(=O)C(O)(c1cccs1)c1cccs1)C2 (stereo unspecified)
(21) CCc1ccc(-n2nc(C)c3c(C(=O)NCCc4ccc(OC)c(OC)c4)cc(C)nc32)cc1
(22) CNCCc1ccc(OC)c(OC)c1
(23) Nc1c(C(=O)OCc2ccccc2)c2nc3ccccc3nc2n1Cc1cccs1
(24) CCC(C)OC(=O)c1c(N)n(Cc2cccs2)c2nc3ccccc3nc12 (stereo unspecified)

compound no.	17	18	19	20	21	22	23	24
A549 viability	-6.1%	-13.1%	2.31µM*	x	-12.8%	11.4%	u	u
Nrf2 inh	20.6µM*	23.1µM*	0.517µM*	x	23.1µM*	0.8%	23.1µM*	u
PI4K2A inh	1.7	-21.0	-4.2	0.5	-1.9	4.1	-1.7	2.0
Nrf2 activator	-2.7%	0.0%	-1.1%	x	6.8%	-0.4%	9.4%	-0.7%
miR-21 reporter	9.3%	17.8%	x	x	13.7%	0.1%	12.7%	1.3%
GALK inhibitor	x	-3.4%	x	x	x	3.3%	0.8%	-0.5%

(25) CC(C)Oc1ccc(CNC(=O)C2CCCN(S(=O)(=O)c3ccc4c(ccn4C)c3)C2)cc1 (stereo unspecified)
(26) Cc1nc2ccccc2c(=O)n1-c1ccccc1Cl
(27) CCOc1ccccc1N=C1SCCCN1C
(28) CCOc1cccc(=NC2CCCCC2)c2c(C)n(C)c(C)c12
(29) O=C1c2ccccc2-c2cc3ccccc3cc21
(30) CC1Sc2c(C(=O)O)c(=O)c3cc(F)c(N4CCNCC4)cc3n21 (stereo unspecified)
(31) Cc1ccsc1C(=O)C1CCCN(Cc2cnc(N(C)C)s2)C1 (stereo unspecified)
(32) Cc1ccsc1C(=O)C1CCCN(Cc2cnc(N3CCOCC3)s2)C1 (stereo unspecified)

compound no.	25	26	27	28	29	30	31	32
A549 viability	-0.2%	x	3.6%	u	-1.6%	x	x	u
Nrf2 inh	x	x	7.2%	16.4µM*	u	x	x	18.4µM*
PI4K2A inh	-12.5	i	-1.5	-1.5	5.3	-4.7	x	12.2
Nrf2 activator	2.8%	x	-0.3%	7.2%	3.16µM*	x	x	2.0%
miR-21 reporter	u	x	0.0%	u	x	x	-10.8%	15.4%
GALK inhibitor	x	x	1.2%	4.7%	x	x	11.5%	0.9%

(33) COc1cccc(C(=O)CCN[C@@H](C)[C@H](O)c2ccccc2)c1
(34) CCC(C)C1NC(=O)C2CCCN2C(=O)C(CC(C)C)OC(=O)CCNC(=O)C(C)N(C)C(=O)C(C(C)C)N(C)C1=O (stereo unspecified)
(35) Oc1ccc([C@H]2CNCc3c2ccc(O)c3O)cc1O
(36) CC(=O)O[C@@H]1CC[C@]2(C)C3CC[C@@]4(C)C(C[C@@H](O)[C@@H]4O)C3[C@@H](OC(C)=O)C[C@H]2C1 (stereo partly specified)
(37) CC(=O)OC1CCC2(C)C(CCC3C2CC(=O)C2(C)C3CC(N3CC3)C2C(C)=O)C1 (stereo unspecified)
(38) COc1ccc2c3c1O[C@H]1[C@H](O)CC[C@H]4[C@@H](C2)N(C)CC[C@@]341
(39) O=C(N[C@H]1N=C(c2ccccc2F)c2cccc3c2N(CC3)C1=O)c1cc2ccccc2[nH]1
(40) CC(=NCc1ccc2c(c1)OCO2)c1c(O)n(Cc2ccccc2)c(=O)[nH]c1=O
(41) C=CCn1c(O)c(C(C)=NCc2ccc3c(c2)OCO3)c(=O)[nH]c1=O
(42) CCC(=NCc1ccc2c(c1)OCO2)c1c(O)n(C2CCCCC2)c(=O)[nH]c1=O

compound no.	33	34	35	36	37	38	39	40	41	42
A549 viability	x	8.2µM*	x	-1.4%	18.4µM*	x	x	8.7%	2.8%	x
Nrf2 inh	x	5.17µM*	x	-20.1%	13.8%	x	x	u	20.6µM*	11.6µM*
PI4K2A inh	4.6	-3.4	-19.5	-6.5	0.0	i	-3.5	-2.4	-7.2	7.4
Nrf2 activator	x	4.0%	x	-0.1%	u	x	x	-0.6%	3.3%	1.1%
miR-21 reporter	x	x	x	x	x	x	x	-2.3%	6.5%	-1.9%
GALK inhibitor	x	x	x	x	x	x	x	2.2%	-2.3%	1.0%

# A draw from above in order of SMILES length, falling.
(39) O=C(N[C@H]1N=C(c2ccccc2F)c2cccc3c2N(CC3)C1=O)c1cc2ccccc2[nH]1
(38) COc1ccc2c3c1O[C@H]1[C@H](O)CC[C@H]4[C@@H](C2)N(C)CC[C@@]341
(40) CC(=NCc1ccc2c(c1)OCO2)c1c(O)n(Cc2ccccc2)c(=O)[nH]c1=O
(33) COc1cccc(C(=O)CCN[C@@H](C)[C@H](O)c2ccccc2)c1

compound no.	39	38	40	33
A549 viability	x	x	8.7%	x
Nrf2 inh	x	x	u	x
PI4K2A inh	-3.5	i	-2.4	4.6
Nrf2 activator	x	x	-0.6%	x
miR-21 reporter	x	x	-2.3%	x
GALK inhibitor	x	x	2.2%	x
